{
  "source": "ChEMBL document CHEMBL2146384",
  "about": "(J Med Chem, 2012)",
  "molecular_target": "T1, Deoxyuridine 5'-triphosphate nucleotidohydrolase, mitochondrial (Homo sapiens, UniProt P33316)",
  "T1 sequence (P33316 whole entry)": "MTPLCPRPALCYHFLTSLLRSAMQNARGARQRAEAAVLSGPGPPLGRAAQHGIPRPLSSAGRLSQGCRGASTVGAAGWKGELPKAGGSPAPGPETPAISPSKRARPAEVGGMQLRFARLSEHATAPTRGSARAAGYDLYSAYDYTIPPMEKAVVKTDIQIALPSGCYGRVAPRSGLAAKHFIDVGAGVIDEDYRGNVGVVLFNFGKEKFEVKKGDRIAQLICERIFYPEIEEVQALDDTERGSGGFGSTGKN",
  "test": "Inhibition of human dUTPase-mediated formation of [5-3H]dUMP expressed in Escherichia coli BL21 (DE3) after 15 mins by HPLC analysis",
  "note": "pIC50: −log10 of the molar value.",
  "data": [
    {"smiles": "CC(C)(CC/C=C/Cn1ccc(=O)[nH]c1=O)NS(=O)(=O)c1cccc(OCC2CC2)c1", "values": [
      {"measurement": "pIC50", "result": 7.55}
    ]}
  ]
}
